Experimental data taken from patent US20130252331A1, “COMPOSITIONS AND METHODS FOR MODULATING METABOLISM” (priority 2010, published 2013).

Tested on: C57B/6 male mice
Experiment: Body weight of C57B/6 mice on high fat diet
Assay type: in vivo, mouse
Details: 50 mg/kg once daily intraperitoneal, p<0.05
Description: 8 week old C57B/6 male mice were started on a high fat diet containing 60% kcal fat. […] Body weight was measured every week.

In the case of `Cc1sc2c(c1C)C(c1ccc(Cl)cc1)=N[C@@H](CC(=O)OC(C)(C)C)c1nnc(C)n1-2` (racemic) [JQ1, (S)-tert-Butyl 2-(4-(4-chlorophenyl)-2,3,9-trimethyl-6H-thieno[3,2-f][1,2,4]triazolo[4,3-a][1,4]diazepin-6-yl)acetate], the “time on treatment after which weight curves separate in a statistically significant way” value was 3 weeks.
